## Reported logP (octanol/water) values for industrial, environmental and drug-like chemicals

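The OPERA project collected these measurements from public sources as training and test data for property models. The files give a single number for a compound and property, which may rest on several reports. Method, purity and exact conditions of the single measurements are not given. Where a salt, mixture or single isomer is drawn, the source does not say that exactly this form was tested. Some upstream entries may be estimates or bounds without being marked so.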

The octanol-water partition coefficient is given as log10; larger values mean a more lipophilic compound.
"via" names the databases from which the curators took the value.

CCC(=O)c1ccc(C)cc1 [p-Methylpropiophenone] is reported with log Kow 2.7 (via eChemPortal).
Brc1cc(Br)c(Oc2ccc(Br)c(Br)c2)c(Br)c1 [2,3',4,4',6-Pentabromodiphenyl Ether] is reported with log Kow 6.71 (via OCHEM).
F/C(=C\Cl)C(F)(F)F [(1Z)-1-Chloro-2,3,3,3-tetrafluoroprop-1-ene] is reported with log Kow 2.4 (via eChemPortal).
c1cnc2c(c1)ccc1ncccc12 [1,7-Phenanthroline] is reported with log Kow 2.51 (via OCHEM).
CCCCC(CC)COC(=O)c1c(Br)c(Br)c(Br)c(Br)c1C(=O)OCC(CC)CCCC (stereo not drawn) [Bis(2-ethylhexyl) tetrabromophthalate] is reported with log Kow 10.2 (via eChemPortal).
Br.CC(Cc1ccc(O)cc1)NCC(=O)c1cc(O)cc(O)c1 (stereo not drawn) is reported with log Kow 0.5 (via eChemPortal).
CCCCCCCCCCCCCCCC[n+]1ccccc1.[Cl-] [Cetylpyridinium chloride] is reported with log Kow 1.71 (via OCHEM).
O=P(Oc1ccccc1)(Oc1ccccc1)Oc1cccc(OP(=O)(Oc2ccccc2)Oc2ccccc2)c1 [Tetraphenyl m-phenylene bis(phosphate)] is reported with log Kow 4.93 (via eChemPortal).
O=C1CC2OCC=C3CN4CCC56c7ccccc7N1C5C2C3CC46O (stereo not drawn) [16-Hydroxystrychnidin-10-one] is reported with log Kow 1.82 (via OCHEM).
O=C([O-])CNCO.[Na+] [Sodium N-(hydroxymethyl)glycinate] is reported with log Kow -1.533 (via eChemPortal).
CC(=O)Cc1c(Cl)cc(Cl)cc1Cl [1-(2,4,6-Trichlorophenyl)-2-propanone] is reported with log Kow 3.2 (via eChemPortal).
O=c1n(Cl)c(=O)n(Cl)c(=O)n1Cl [Symclosene] is reported with log Kow 0.26 (via OFMPub, PubChem).
C=CC(=O)NC(C)(C)CC(C)=O [Diacetone acrylamide] is reported with log Kow 2.09 (via eChemPortal).
CC(O)CN1CCN(CC(=O)[O-])CCN(CC(=O)[O-])CCN(CC(=O)[O-])CC1.[Gd+3] (stereo not drawn) [Gadoteridol] is reported with log Kow -3.68 (via PubChem).
CCCCC(CC)C(=O)OOC(C)(C)CC (stereo not drawn) [Hexaneperoxoic acid, 2-ethyl-, 1,1-dimethylpropyl ester] is reported with log Kow 4.56 (via eChemPortal).
C[n+]1ccc(-c2ccccc2)cc1.[I-] [1-Methyl-4-phenylpyridinium iodide] is reported with log Kow -2.28 (via OCHEM).
C[C@]12CC[C@H]3[C@@H](CCC4=CC(=O)C=C[C@@]43C)[C@@H]1CC[C@@H]2O [Boldenone] is reported with log Kow 2.3 (via eChemPortal).
CCCC(C)(COC(N)=O)COC(=O)NC(C)C (stereo not drawn) [Carisoprodol] is reported with log Kow 2.1 (via PubChem).
FC(F)(F)/C=C\C(F)(F)F [(Z)-1,1,1,4,4,4-Hexafluoro-2-butene] is reported with log Kow 2.3 (via eChemPortal).
COc1cc(OC)nc(NC(=O)[N-]S(=O)(=O)c2ncccc2OCC(F)(F)F)n1.[Na+] [Trifloxysulfuron-sodium] is reported with log Kow 0.023 (via eChemPortal).
CC[C@]12CC[C@H]3[C@@H](CCC4=CC(=O)CC[C@@H]43)[C@@H]1CCC2=O [(+)-13-Ethylgon-4-ene-3,17-dione] is reported with log Kow 3.3 (via eChemPortal).
Oc1cc(Cl)cc(Cl)c1O [3,5-Dichlorocatechol] is reported with log Kow 2.32 (via OCHEM).
CC1OC(C[N+](C)(C)C)CC1O.[I-] (stereo not drawn) is reported with log Kow -2.95 (via OCHEM).
FC(F)=C(F)OC(F)(F)C(F)(F)F [Perfluoroethyl vinyl ether] is reported with log Kow 3.29 (via eChemPortal).
COc1c(C[C@@H](C)OC(=O)Oc2ccc(O)cc2)c2c3c(C[C@@H](C)OC(=O)c4ccccc4)c(OC)c(=O)c4c(O)cc(OC)c(c5c(OC)cc(O)c(c1=O)c52)c43 is reported with log Kow 7.65 (via PubChem).
COc1ccc(OC)c(C(O)C(C)N)c1 (stereo not drawn) [Methoxamine] is reported with log Kow 0.8 (via PubChem).
Cc1ccccc1CCl [1-(Chloromethyl)-2-methylbenzene] is reported with log Kow 3.34 (via eChemPortal).
O=C1C(Cl)=C(Cl)C(=O)C(Cl)=C1Cl [Chloranil] is reported with log Kow 2.3 (via eChemPortal).
O=C(NC(=O)c1c(F)cccc1F)Nc1ccc(Oc2ccc(C(F)(F)F)cc2Cl)cc1F [Flufenoxuron] is reported with log Kow 6.16 (via PubChem).
CC(C)CCC(C)Nc1ccc(NC(C)CCC(C)C)cc1 (stereo not drawn) [N,N'-Bis(1,4-dimethylpentyl)-4-phenylenediamine] is reported with log Kow 5.34 (via OFMPub, eChemPortal).
O=C1C[C@@H]2OCC=C3CN4CCC56c7cc([N+](=O)[O-])ccc7N1[C@H]5[C@H]2[C@H]3C[C@H]46 (stereo partly drawn) [2-Nitrostrychnidin-10-one] is reported with log Kow 1.61 (via OCHEM).
NC1=Nc2ccc(Cl)cc2C(c2ccccc2)=[N+]([O-])C1 [7-Chloro-2-amino-5-phenyl-3H-1,4-benzodiazepine 4-oxide] is reported with log Kow 2.13 (via OCHEM).
BrCC(Br)C1CCC(Br)C(Br)C1 (stereo not drawn) [1,2-Dibromo-4-(1,2-dibromoethyl)cyclohexane] is reported with log Kow 5.24 (via PubChem).
O=S(=O)(c1ccc(Cl)cc1)c1ccc(Cl)cc1 [4,4'-Dichlorodiphenyl sulfone] is reported with log Kow 3.9 (via eChemPortal).
CNCCCCc1cccnc1 [N-Methyl-4-(pyridin-3-yl)butan-1-amine] is reported with log Kow 0.91 (via OCHEM).
Nc1nnn[nH]1 [Tetrazol-5-ylamine] is reported with log Kow -0.92 (via eChemPortal).
O=C(Cl)C(Cl)(Cl)Cl [Trichloroacetyl chloride] is reported with log Kow 0.88 (via eChemPortal).
CCOC(=O)C(Cl)C(C)=O (stereo not drawn) [Ethyl 2-chloroacetoacetate] is reported with log Kow 1.2 (via eChemPortal).
O=C1NC(=O)N(Cc2ccccc2)C(=O)C1c1ccccc1 (stereo not drawn) [2,4,6(1H,3H,5H)-Pyrimidinetrione, 5-phenyl-1-(phenylmethyl)-] is reported with log Kow 2.57 (via eChemPortal).
C=C(C)CCl [3-Chloro-2-methylpropene] is reported with log Kow 1.98 (via PubChem).
CN1CCC(Cl)CC1 [Piperidine, 4-chloro-1-methyl-] is reported with log Kow 1.318 (via eChemPortal).

From the experimental data distributed with OPERA 2.9.